Literature values as cited in US10792281B2 (priority 2014, dated 2020).

Conditions: approximately one week

Question: Which “doses without clinically relevant side effects (safety studies)” value does the source give for CC(C)(O)c1ccccc1CC[C@@H](SCC1(CC(=O)O)CC1)c1cccc(/C=C/c2ccc3ccc(Cl)cc3n2)c1 [montelukast] here?
Answer: The value was “up to 900 mg/day”.
